Literature values, collected in patent publication US10358672B2, “7-β-hydroxysteroid dehydrogenase mutants and process for the preparation of ursodeoxycholic acid” (Pharmazell GmbH, priority 2014, dated 2019).

By UniProt entry, the sequences of proteins in these tests, tags left out. Where a name states a change or a piece, a line headed by the entry shows the natural chain unless it says otherwise.
UniProt A4ECA9: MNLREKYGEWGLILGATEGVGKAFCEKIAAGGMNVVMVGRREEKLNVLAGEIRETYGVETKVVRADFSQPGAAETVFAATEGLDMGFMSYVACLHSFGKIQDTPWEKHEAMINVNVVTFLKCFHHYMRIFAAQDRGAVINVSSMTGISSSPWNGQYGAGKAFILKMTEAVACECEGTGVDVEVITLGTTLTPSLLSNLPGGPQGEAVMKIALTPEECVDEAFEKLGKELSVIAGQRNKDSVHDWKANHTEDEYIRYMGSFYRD

Target: 7β-HSDH obtainable from Collinsella aerofaciens DSM 3979 (Collinsella aerofaciens, UniProt A4ECA9)
Conditions: wild-type 7β-HSDH; cited from earlier work

For `C[C@H](CCC(=O)O)[C@H]1CC[C@H]2[C@@H]3[C@@H](O)C[C@@H]4C[C@H](O)CC[C@]4(C)[C@H]3CC[C@]12C` [UDCA, Ursodeoxycholic acid], the Km is given as 6.23 µM.
